molecular target: CCR1 (Homo sapiens, UniProt P32246); assay: CCR1 Ligand Binding Scintillation Proximity Assay (SPA), [125I]-MIP-1α competition on THP-1 cells; settings: read-out: CCR1 Binding Ki; THP-1 monocytic leukemia cells; 0.1 nM [125I]-MIP-1α; Ki from IC50 by Cheng-Prusoff equation
Method: CCR1 Ligand Binding Scintillation Proximity Assay (SPA)
For radioligand competition studies, a final concentration of 1×10^5 THP-1 monocytic leukemia cells are combined with 100 μg of LS WGA PS beads (Amersham, Cat.#: RPNQ 0260) in 40 μl of assay buffer (RPMI 1640 without phenol red, 50 mM HEPES, 5 mM MgCl2, 1 mM CaCl2, 0.1% BSA). The THP-1 cell/bead mixture is added to each well of a 384-well assay plate (PerkinElmer, Cat. #:6007899) containing test compound in 3-fold serial dilution, with final concentrations ranging from 8 μM to 140 pM. A final concentration of 0.1 nM [^125I]-MIP-1α (PerkinElmer, Cat. #NEX298) in 20 μl assay buffer is added to the reaction. Sealed assay plates are incubated at room temperature for 12 h then analyzed by LEADseeker™.
The competition data of compound (I) over a range of concentrations is plotted as percentage inhibition of radioligand specific bound in the absence of test compound (percent of total signal). After correcting for non-specific binding, IC50 values are determined. The IC50 value is defined as the concentration of test compound needed to reduce [^125I]-MIP-1α specific binding by 50% and is calculated using the four parameter logistic equation to fit the normalized data. The Ki values are determined by application of the Cheng-Prusoff equation to the IC50 values, where Ki=IC50/(1+ligand concentration/Kd) The Kd of [^125I]-MIP-1α in THP-1 cells is 0.1 nM. Each experiment is run in duplicate.

Sequences of proteins named here, by UniProt entry; tags and fusion partners are left off.
UniProt P32246, whole entry: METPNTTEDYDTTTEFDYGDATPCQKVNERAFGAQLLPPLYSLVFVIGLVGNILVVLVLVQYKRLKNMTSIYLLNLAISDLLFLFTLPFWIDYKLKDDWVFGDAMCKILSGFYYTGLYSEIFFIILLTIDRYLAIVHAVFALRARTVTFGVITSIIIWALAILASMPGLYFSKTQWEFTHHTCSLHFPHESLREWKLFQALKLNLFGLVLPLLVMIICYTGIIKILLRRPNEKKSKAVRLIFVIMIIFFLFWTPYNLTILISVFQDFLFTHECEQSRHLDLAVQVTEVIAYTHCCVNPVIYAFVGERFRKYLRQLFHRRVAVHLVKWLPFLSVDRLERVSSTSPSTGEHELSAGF

| Ki | SMILES |
| --- | --- |
| 2.4 nM | CC(C)[C@@H](NC(=O)C1CCCC12CCNC(=O)O2)C(=O)N1CC[C@](O)(c2ccc(Cl)cc2)C(C)(C)C1 (single isomer, unassigned) |
| 193 nM | CC(C)[C@@H](NC(=O)[C@@H]1CCC2(CCCN2)C1)C(=O)N1CC[C@](O)(c2ccc(Cl)cc2)C(C)(C)C1 (single isomer, unassigned) |
| 6.6 nM | CC(C)[C@@H](NC(=O)[C@@H]1CCC2(CCNC(=O)O2)C1)C(=O)N1CC[C@](O)(c2ccc(Cl)cc2)C(C)(C)C1 (single isomer, unassigned) |
